In patent publication US12447159B2 (AELIS FARMA, priority 2018, dated 2025):

Assays:
[1] = AMES test +/- metabolic activation (GLP); type: cell-based; conditions: highest concentration tested between 74 and 100 μM
From the text: […].

rats = assay: 28-day oral toxicity study (GLP) in rats; conditions: rat

With `COc1ccc(CO[C@H]2CC[C@@]3(C)C(=CC[C@H]4[C@@H]5CC[C@H](C(C)=O)[C@@]5(C)CC[C@@H]43)C2)cc1` [3pMBP, 3β-(4-methoxybenzyloxy)pregn-5-en-20-one] the Mutagenesis [1] was “did not show any cytotoxicity, genotoxicity and mutagenesis” and the “NOAEL (Non observed adverse effect level)” value (rats) was > 36 mg/kg/day/28 days.
